Assay results reported in patent US12123051B2, “Nucleic acid ratio determination” (priority 2017, dated 2024).
Where two headings read alike, the source gives them in different places.

How the values were obtained:
Assay type in all cases: cell-based
[1] = system: Chlamydia trachomatis (serovar D) in HEp-2 cells; experiment: Antibiotic susceptibility testing by VITA PCR, azithromycin, Treatment Protocol B
Method: The levels of GAT and NED were estimated and used to calculate VITA Index.
(§1) The ΔCt was calculated as the differences between the Ct values of the NED and GAT1/2 signals.
To measure NED, another region of Chlamydia DNA was co-amplified in the same RT-PCR using primers targeting a region of genomic DNA which is not transcribed. The levels of GAT and NED were estimated and used to calculate VITA Index.
as §1

[2] = system: Chlamydia trachomatis strains 1-5 in HEp-2 cells; conditions: one hour PT
Method: After infection, there was no change of media at the 4 h time point. Once in an exponential growth phase, 20 hours PI, cells were treated with a single dose of different antibiotics. […] Strains used for this treatment protocol were Strain 1) serovar D lab strain (UW-3/Cx), Strain 2) serovar L2 wild type lab strain (434/Bu), Strain 3) serovar L2 lab created mutant strain, resistant to trimethoprim, Strain 4) serovar L2 lab created mutant strain, resistant to Spectinomycin and Strain 5) serovar L2 lab created mutant strain, resistant to Rifampicin. […] Samples were then incubated at 37° C. with 5% CO2 and harvested at 1 hour PT, using SPG buffer and extracted immediately. Two biological replicates were obtained for each condition.
The following example analyses the susceptibility of bacteria to a given drug, by estimation of the change of GAT levels relative to NED in TNA samples. These were then compared between samples treated with antibiotic and not treated (control). […] Treatment was as described in example 1, Treatment E (1.1.5). To obtain a measure GAT, Chlamydia DNA and RNA was amplified by RT-PCR using primers targeting two different locations of the omp1 gene and its transcripts. To measure NED, another region of Chlamydia DNA was co-amplified in the same RT-PCR using primers targeting a region of genomic DNA which is not transcribed. The levels of GAT and NED were estimated and used to calculate VITA Index. Further to this the VITA Indices of treated and untreated samples were used to calculate the ΔVITA Ratio.
(§2) Partzyme oligonucleotides, Reporter substrates and PCR primers used for amplification and detection of GAT1, GAT2 and NED were as per example 9 (9.1, 9.2 and 9.3 respectively). The RT-PCR conditions used were as described in Example 9 (9.5) and reactions contained either 5 μL of TNA template (1/1000 dilution) or no target (dH2O).
Chlamydia DNA and RNA from 2 GAT regions and one NED region, were co-amplified and detected in single RT-PCR from TNA extracted from chlamydia cultures. These cultures were treated with antibiotic or left untreated (control) at an exponential growth phase and harvested at 1 hour post treatment. […] The ΔCt was calculated as the differences between the Ct values of the NED and GAT1/2 signals.
The following example analyses the susceptibility of bacteria to a given drug, by estimation of the change of GAT levels relative to NED in TNA samples. These were then compared between samples treated with antibiotic and not treated (control). […]
Chlamydia DNA and RNA from 2 GAT regions and one NED region, were co-amplified and detected in single RT-PCR from TNA extracted from chlamydia cultures. […] The ΔCt was calculated as the differences between the Ct values of the NED and GAT1/2 signals.

[3] = system: Chlamydia trachomatis (serovar D) in HEp-2 cells; experiment: Antibiotic susceptibility testing by VITA PCR, dose dependent response, Treatment Protocol D; conditions: 1 h PT
Method: After infection, there was no change of media at the 4 h time point.
Further to this the VITA Indices of treated and untreated samples were used to calculate the ΔVITA Ratio.
as §1
To measure NED, another region of Chlamydia DNA was co-amplified in the same RT-PCR using primers targeting a region of genomic DNA which is not transcribed. […] Further to this the VITA Indices of treated and untreated samples were used to calculate the ΔVITA Ratio.
as §2, §1

[4] = system: Chlamydia trachomatis (serovar D) in HEp-2 cells; experiment: VITA PCR (duplex RT-PCR, one GAT omp1 and NED infAIGR), Treatment Protocol A; conditions: added 4 h PI, harvested 44 h PI, TR 1
[5] = system: Chlamydia trachomatis (serovar D) in HEp-2 cells; experiment: VITA PCR (triplex) with long GAT1 and GAT2 amplicons, Treatment Protocol A; conditions: added 4 h PI, harvested 44 h PI, TR 2

CC[C@H]1OC(=O)[C@H](C)[C@@H](O[C@H]2C[C@@](C)(OC)[C@@H](O)[C@H](C)O2)[C@H](C)[C@@H](O[C@@H]2O[C@H](C)C[C@H](N(C)C)[C@H]2O)[C@](C)(O)C[C@@H](C)CN(C)[C@H](C)[C@@H](O)[C@]1(C)O [Azithromycin]
VITA Index ([1]; Example 7: plus antibiotic 0.128 μg/mL at 24 h PI, 1 h PT): 5.78 | VITA Index ([1]; Example 7: plus antibiotic 0.128 μg/mL at 24 h PI, 6 h PT): 14.35 | VITA Index ([1]; Example 8: plus antibiotic 0.128 μg/mL at 24 h PI, 30 min PT): 94 | VITA Index ([1]; Example 8: plus antibiotic 0.128 μg/mL at 24 h PI, 1 h PT): 49.20 | VITA Index ([2]; Table 12a: Strain 1, plus antibiotic 0.256 μg/mL): 3.95 | VITA Index ([2]; Table 12a: Strain 2, plus antibiotic 0.256 μg/mL): 4.27 | VITA Index ([2]; Table 12a: Strain 3, plus antibiotic 0.256 μg/mL): 5.66 | VITA Index ([2]; Table 12a: Strain 5, plus antibiotic 0.256 μg/mL): 5.50 | VITA Index ([3]; Example 10 (Extraction Protocol A, 24 h PI): dose 1 (0.128 μg/mL)): 89.28 | VITA Index ([3]; Example 10 (Extraction Protocol A, 24 h PI): dose 2 (0.192 μg/mL)): 70.74 | VITA Index ([3]; Example 10 (Extraction Protocol A, 24 h PI): dose 3 (0.256 μg/mL)): 28.91 | VITA Index ([3]; Example 11 (Extraction Protocol B, 20 h PI): dose 1 (0.128 μg/mL)): 4.47 | VITA Index ([3]; Example 11 (Extraction Protocol B, 20 h PI): dose 2 (0.192 μg/mL)): 4.18 | VITA Index ([3]; Example 11 (Extraction Protocol B, 20 h PI): dose 4 (0.512 μg/mL)): 3.35 | VITA Index ([4]; <MIC (0.008 μg/mL)): 2.77 | VITA Index ([4]; >MIC (0.512 μg/mL)): 1.51 | VITA Index ([4]; MIC (0.064 μg/mL)): 1.49 | VITA Index ([5]; <MIC (0.008 μg/mL)): 1.53 | VITA Index ([5]; >MIC (0.512 μg/mL)): 0.40 | VITA Index ([5]; MIC (0.064 μg/mL)): 0.61
